Experimental data taken from paper PMC8227162, “Selective Targeting of Breast Cancer by Tafuramycin A Using SMA-Nanoassemblies” (Molecules, 2021).

Assays:
[1] = 20 mg/kg IV, 24 h after injection
4T1 tumors = test: In vivo antitumor effects in 4T1 tumor-bearing Balb/c mice; conditions: 3 mg/kg (TFA equivalent) IV, 9-day treatment, vs control group
Experimental: Female Balb/c mice (6–12 weeks old, mean weight = 20–25 g) were supplied by the Laboratory Animal Care Facility of the Arabian Gulf University (AGU), Bahrain. All animals were kept under standard conditions, including controlled temperature (25 °C) and a 12 h light/dark cycle, and had free access to food and drinking water ad libitum. All animal experiments were performed based on the rules and regulations of the Arabian Gulf University Animal Care Policy and approved by the Research and Ethics Committee, REC Approval No: G-E001-PI-12/16.
To propagate the tumor, female Balb/c mice (n = 3) were injected with one million 4T1 mammary carcinoma cells bilaterally (right and left side) on the flanks. The tumor was then collected and cut down into small pieces with an average size of 1–3 mm^3 in sterile PBS to sustain tumor viability. Following this, 5 mice of each group were shaved, anesthetized, and inoculated with one small piece of the 4T1 tumor tissue subcutaneously. […] Tumor volume was measured by a manual caliber, and the volume was estimated by using the formula:V (mm^3) = ((transverse section (W)^2 × longitudinal cross section (L))/2)
Tumor volumes were normalized by using the initial tumor volume and represented as the mean ± standard error of the mean (SEM). Additionally, the body weight of mice was measured every day and normalized daily for 9 days.

selected solid tumors = test system: selected solid tumors; set-up: method as in PMID 12110316; conditions: panel of tumoral cell lines ref 21; cited from earlier work

Question: For COc1cc2cc(C(=O)N3CC(CCl)c4c3cc(O)c3ccoc43)[nH]c2c(OC)c1OC (stereo not drawn) [TFA, tafuramycin A], which Tumor/cardiac ratio [1] is on record?
Answer: 0.49

Question: What about the “Tumor growth (tumor volume changes)” value (4T1 tumors) of the same molecule?
Answer: slightly slowed down tumor growth; also recorded: significantly slowed growth

Question: And the “Activity against selected solid tumors” value (selected solid tumors)?
Answer: activity in the nanomolar range

“Also recorded” adds a separate entry of the source. Structures can show the parent of a compound that is named as a salt.
